From paper PMC7279487, “Dual Target Ligands with 4-tert-Butylphenoxy Scaffold as Histamine H3 Receptor Antagonists and Monoamine Oxidase B Inhibitors” (International Journal of Molecular Sciences, 2020) come the findings set out here.

Amino acid sequences for entries named in this document (tags omitted).
UniProt P27338, whole entry: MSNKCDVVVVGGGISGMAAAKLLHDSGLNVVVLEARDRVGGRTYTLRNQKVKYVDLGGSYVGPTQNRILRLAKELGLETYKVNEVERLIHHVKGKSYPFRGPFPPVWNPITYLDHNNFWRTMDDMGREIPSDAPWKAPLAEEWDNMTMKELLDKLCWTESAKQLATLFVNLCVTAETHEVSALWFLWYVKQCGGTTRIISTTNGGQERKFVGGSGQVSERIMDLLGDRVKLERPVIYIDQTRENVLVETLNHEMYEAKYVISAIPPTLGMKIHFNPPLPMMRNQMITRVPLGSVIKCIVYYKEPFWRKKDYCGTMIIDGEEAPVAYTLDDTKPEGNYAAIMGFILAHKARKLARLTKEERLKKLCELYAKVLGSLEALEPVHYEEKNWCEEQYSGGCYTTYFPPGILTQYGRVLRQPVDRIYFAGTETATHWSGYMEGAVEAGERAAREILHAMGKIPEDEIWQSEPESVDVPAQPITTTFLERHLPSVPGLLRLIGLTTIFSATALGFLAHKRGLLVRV

The assay deals with T1, hMAO B (Homo sapiens, UniProt P27338).
T1 construct: purchased Sigma Aldrich M7441
Put plainly: hMAO B reversibility studies. The assay is classed as biochemical. The method, then:
Reversibility of MAO B inhibitors was tested as described previously with slight modification. Two experiments were performed simultaneously. In the first experiment, inhibitors (in concentrations corresponding to their IC80 values) were incubated with the enzyme and p-tyramine (10 μM) for 22 min (measuring fluorescence every two minutes).

With `C#CCN[C@@H]1CCc2ccccc21` [rasagiline, reference compound], the “effect of 30 min preincubation with enzyme on hMAO B inhibition” value is on record as “showed higher inhibition when preincubated with hMAOB”.
